Experimental data published in ChEMBL document CHEMBL3886962, “Spirocyclic sulfones as gamma secretase inhibitors” (2016).

By UniProt entry, the sequences of proteins in these tests, tags left out.
UniProt P05067, whole entry, looked up: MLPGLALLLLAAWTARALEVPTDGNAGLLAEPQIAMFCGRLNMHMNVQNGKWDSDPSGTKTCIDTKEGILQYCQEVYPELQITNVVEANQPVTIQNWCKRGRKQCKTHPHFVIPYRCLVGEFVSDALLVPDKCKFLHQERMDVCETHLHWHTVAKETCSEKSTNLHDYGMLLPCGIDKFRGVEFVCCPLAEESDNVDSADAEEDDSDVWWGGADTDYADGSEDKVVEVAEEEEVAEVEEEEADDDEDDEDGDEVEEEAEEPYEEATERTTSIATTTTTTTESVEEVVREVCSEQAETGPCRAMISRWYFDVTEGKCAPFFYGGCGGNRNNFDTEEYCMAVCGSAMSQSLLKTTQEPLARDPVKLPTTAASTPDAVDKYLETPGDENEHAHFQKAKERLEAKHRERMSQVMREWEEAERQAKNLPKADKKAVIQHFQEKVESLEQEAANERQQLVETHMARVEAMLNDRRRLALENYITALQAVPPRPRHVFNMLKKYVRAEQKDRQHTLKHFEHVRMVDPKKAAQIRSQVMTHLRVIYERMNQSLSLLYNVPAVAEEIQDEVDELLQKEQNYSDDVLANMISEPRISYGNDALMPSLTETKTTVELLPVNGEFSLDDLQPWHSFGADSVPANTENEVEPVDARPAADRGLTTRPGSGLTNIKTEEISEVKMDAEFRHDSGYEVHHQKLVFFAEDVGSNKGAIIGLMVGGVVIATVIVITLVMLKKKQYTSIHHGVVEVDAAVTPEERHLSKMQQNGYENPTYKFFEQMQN

target: Amyloid-beta precursor protein (Homo sapiens, UniProt P05067); assay: Electrochemiluminescence (ECL)-Based Immunoassay: To measure γ-secretase activity, membranes were incubated at 37° C. for 1 h in 50 μL of buffer containing 20 mM Hepes (pH 7.0) and 2 mM EDTA. At the end of the incubation, Aβ 40 and Aβ 42 were measured using an electrochemiluminescence (ECL)-based immunoassay. Aβ 40 was identified with antibody pairs TAG-G2-10 and biotin-W02, while Aβ 42 was identi

Point of comparison: `C[P@]1(=O)OC[C@@]2(CCC[C@@]3(S(=O)(=O)c4ccc(Cl)cc4)c4c(F)ccc(F)c4OC[C@@H]23)CO1`, IC50 421 nM. Against it:
- C[P@]1(=O)OC[C@]2(CCC[C@@]3(S(=O)(=O)c4ccc(Cl)cc4)c4c(F)ccc(F)c4OC[C@@H]23)CO1 — 44-fold lower, 9.5 nM
- C[P@]1(=O)OC[C@@]2(CCC[C@@]3(S(=O)(=O)c4ccc(C(F)(F)F)cc4)c4c(F)ccc(F)c4OC[C@@H]23)CO1 — within 1.5-fold, 397 nM
- C[P@]1(=O)OC[C@]2(CCC[C@@]3(S(=O)(=O)c4ccc(C(F)(F)F)cc4)c4c(F)ccc(F)c4OC[C@@H]23)CO1 — 5.3-fold lower, 79 nM
